Reference: article PMC3800051 (Bioorganic & medicinal chemistry letters, 2009)

Sequences of proteins named here, by UniProt entry; tags and fusion partners are left off. A change or cut given only in a name is not applied to a line headed by its entry.
UniProt O14939: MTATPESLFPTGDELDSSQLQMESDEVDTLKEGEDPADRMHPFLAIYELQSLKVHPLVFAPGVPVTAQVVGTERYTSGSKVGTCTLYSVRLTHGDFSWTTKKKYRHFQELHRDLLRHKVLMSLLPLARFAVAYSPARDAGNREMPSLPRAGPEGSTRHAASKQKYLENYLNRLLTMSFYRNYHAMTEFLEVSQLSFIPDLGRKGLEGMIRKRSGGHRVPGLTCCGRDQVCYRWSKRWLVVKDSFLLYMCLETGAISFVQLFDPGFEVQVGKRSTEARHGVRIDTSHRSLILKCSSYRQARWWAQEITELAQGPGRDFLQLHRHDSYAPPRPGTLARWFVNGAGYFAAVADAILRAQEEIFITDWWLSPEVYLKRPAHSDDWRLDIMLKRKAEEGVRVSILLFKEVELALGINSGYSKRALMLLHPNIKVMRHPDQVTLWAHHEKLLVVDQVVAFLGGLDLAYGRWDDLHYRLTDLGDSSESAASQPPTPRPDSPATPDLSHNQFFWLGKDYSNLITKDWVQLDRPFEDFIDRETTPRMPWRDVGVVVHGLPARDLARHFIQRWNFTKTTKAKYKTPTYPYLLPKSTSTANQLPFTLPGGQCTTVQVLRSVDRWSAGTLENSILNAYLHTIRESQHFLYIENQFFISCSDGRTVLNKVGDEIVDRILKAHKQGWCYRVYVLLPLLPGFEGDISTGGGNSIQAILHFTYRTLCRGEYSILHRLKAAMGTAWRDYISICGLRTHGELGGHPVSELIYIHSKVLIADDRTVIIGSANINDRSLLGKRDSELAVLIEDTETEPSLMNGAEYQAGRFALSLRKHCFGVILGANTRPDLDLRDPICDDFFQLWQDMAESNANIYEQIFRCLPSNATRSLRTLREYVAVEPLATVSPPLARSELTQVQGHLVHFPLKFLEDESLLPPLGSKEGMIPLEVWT

Assays:
PLD1 [1] = target: T1, PLD1 (Homo sapiens, UniProt Q13393); conditions: cell based assay; cited from earlier work
T1 sequence (Q13393 1-1074): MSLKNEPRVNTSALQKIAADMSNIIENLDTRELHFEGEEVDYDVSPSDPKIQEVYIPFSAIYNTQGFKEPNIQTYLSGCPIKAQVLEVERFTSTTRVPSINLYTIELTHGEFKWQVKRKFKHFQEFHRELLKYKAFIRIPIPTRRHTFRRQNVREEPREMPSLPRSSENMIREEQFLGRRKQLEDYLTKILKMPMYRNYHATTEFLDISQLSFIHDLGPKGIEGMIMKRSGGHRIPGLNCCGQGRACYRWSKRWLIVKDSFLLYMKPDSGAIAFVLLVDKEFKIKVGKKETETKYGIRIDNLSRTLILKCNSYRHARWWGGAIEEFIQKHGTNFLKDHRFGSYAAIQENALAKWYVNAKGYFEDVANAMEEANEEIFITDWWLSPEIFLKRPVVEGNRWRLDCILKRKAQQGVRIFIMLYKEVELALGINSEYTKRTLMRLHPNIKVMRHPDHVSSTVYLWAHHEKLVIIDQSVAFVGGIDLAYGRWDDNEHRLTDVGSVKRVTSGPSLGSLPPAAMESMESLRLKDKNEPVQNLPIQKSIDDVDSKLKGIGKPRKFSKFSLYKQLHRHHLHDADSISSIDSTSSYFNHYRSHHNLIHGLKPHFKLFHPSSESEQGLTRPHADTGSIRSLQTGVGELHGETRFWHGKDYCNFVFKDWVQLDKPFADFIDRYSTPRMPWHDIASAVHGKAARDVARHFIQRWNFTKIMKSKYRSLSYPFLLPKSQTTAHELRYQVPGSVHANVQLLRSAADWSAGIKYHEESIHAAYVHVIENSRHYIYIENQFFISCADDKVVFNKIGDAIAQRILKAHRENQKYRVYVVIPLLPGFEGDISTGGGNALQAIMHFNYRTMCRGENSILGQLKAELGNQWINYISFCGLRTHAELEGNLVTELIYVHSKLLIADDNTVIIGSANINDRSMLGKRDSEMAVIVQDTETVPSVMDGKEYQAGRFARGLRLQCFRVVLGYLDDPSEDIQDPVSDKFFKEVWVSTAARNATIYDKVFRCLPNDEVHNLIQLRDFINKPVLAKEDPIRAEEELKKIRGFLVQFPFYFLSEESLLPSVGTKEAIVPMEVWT

PLD2 = PLD2 (Homo sapiens, UniProt O14939); conditions: recently reported; cited from earlier work
PLD1 [2] = target: T1, PLD1; conditions: cellular assay, Calu-1 cells
PLD1 [3] = target: T1, PLD1; assay: biochemical

For `C[C@@H](CN1CCC(n2c(=O)[nH]c3cc(Br)ccc32)CC1)NC(=O)[C@H]1C[C@@H]1c1ccccc1` [Compound 2], the “Selectivity for PLD1 over PLD2” value (PLD1 [1]) is listed as over 1700 fold.
For `O=C(NCCN1CCC2(CC1)C(=O)NCN2c1ccccc1)c1ccc2ccccc2c1` [Compound 3], the “PLD2 selectivity versus PLD1” value (PLD2) is listed as “~ ninefold”.
With `C[C@@H](CN1CCC2(CC1)C(=O)NCN2c1ccccc1)NC(=O)c1ccc2ccccc2c1` [Compound 10a] the “Increase of PLD1 inhibitory activity relative to 3” value (PLD1 [2]) was 40 fold and the IC50 (PLD1 [3]) was 299 nM.
